Measurements as given in article PMC5843908, “Detection of PRMT1 inhibitors with stopped flow fluorescence” (Signal Transduction and Targeted Therapy, 2018).

By UniProt entry, the sequences of proteins in these tests, tags left out. Residues count along the entry.
UniProt Q99873, 29-371: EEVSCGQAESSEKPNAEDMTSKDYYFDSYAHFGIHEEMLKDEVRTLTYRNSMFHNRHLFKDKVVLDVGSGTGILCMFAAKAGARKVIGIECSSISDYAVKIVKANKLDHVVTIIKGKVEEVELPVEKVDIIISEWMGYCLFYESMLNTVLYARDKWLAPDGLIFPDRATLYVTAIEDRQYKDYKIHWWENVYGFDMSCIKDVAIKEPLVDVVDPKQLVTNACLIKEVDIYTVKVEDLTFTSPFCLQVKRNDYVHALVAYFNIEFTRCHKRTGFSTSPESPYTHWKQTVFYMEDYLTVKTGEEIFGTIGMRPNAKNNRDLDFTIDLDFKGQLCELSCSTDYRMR

Molecular target: PRMT1 (Homo sapiens, UniProt Q99873)
Assay: Stopped flow fluorescence assay of PRMT1 inhibition ([PRMT1] 0.2 µM, [SAM] 3.5 µM, [H4FL] 0.4 µM);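 further: Stopped-flow traces of fluorescent H4FL peptide quenched on binding PRMT1 and restored on release, recorded 900 s, averaged over repeated drives and fit to a double-exponential model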
Format: biochemical

- a·k1 (slope of Phase I) ([SAH] 5 µM): 0.0171 ± 4.08e-05 s⁻¹
- a·k1 (slope of Phase I) ([SAH] 10 µM): 0.0163 ± 5.57e-05 s⁻¹
Structure (SMILES): Nc1ncnc2c1ncn2[C@@H]1O[C@H](CSCC[C@H](N)C(=O)O)[C@@H](O)[C@H]1O [SAH, S-adenosyl homocysteine]
